Results reported in PubChem BioAssay AID2012 (Sanford-Burnham Center for Chemical Genomics, 2009).
Values joined by “and” are separate entries in the source; they are usually repeats but may differ in a detail not shown here. Identical values can stand only once. This is a selection; strong and weak results do not stand in their true shares. Active and inactive are the calls of the source. The rule behind the calls is not given here.

biological target: Eukaryotic translation initiation factor 4H (Homo sapiens) (UniProt Q15056); assay: human eIF4H binding inhibitors, primary screen, translation initiation inhibitor project, biochemical, uHTS, fluorescence polarization (AID 2012); settings: eIF4H fluorescence polarization binding assay; at 35 µM; stronger effect = higher value

Row | Compound | inhibition
1 | Clc1ccc(Cl)c(NC2=NCC(CBr)S2)c1 (stereo unspecified) | inactive: -2.8%
2 | CN(C)CCOC(=O)C(O)(c1ccccc1)C1CCCC1 (stereo unspecified) | inactive: 2.8%
3 | Cc1nc2ccc3ccccc3c2o1.O=[N+]([O-])c1cc([N+](=O)[O-])c(O)c([N+](=O)[O-])c1 | inactive: 10.1%
4 | CCN(N=Nc1nonc1N)c1nonc1N | inactive: -3.6%
5 | CP(=O)(Nc1ccc(Cl)cc1Cl)Oc1ccccc1 (stereo unspecified) | inactive: -1.3%
6 | CP(=O)(OCCOc1ccccc1)OCCOc1ccccc1 | inactive: 2.9%
7 | CC(=O)Nc1ccc([As](=O)(O)O)cc1 | inactive: 1.9%
8 | O=C(O)c1ccccc1[As](=O)(O)O | inactive: 0.2%
9 | O=P(Nc1nc2ccc(Cl)cc2s1)(c1ccccc1)c1ccccc1 | inactive: 12.8%
10 | Cc1cc(C)cc(OP(C)(=O)Nc2cccc(C(F)(F)F)c2)c1 (stereo unspecified) | inactive: -6.2%
11 | COc1ccccc1OP(C)(=O)Nc1ccc(C)c(C)c1 (stereo unspecified) | inactive: 3.4%
12 | Cc1ccc(NP(=O)(Oc2ccccc2F)Oc2ccccc2F)nc1 | inactive: 1.8%
13 | Cc1cc(SC(NC(=O)c2ccc(F)cc2)C(Cl)(Cl)Cl)ncn1 (stereo unspecified) | inactive: -2%
14 | CCOP(=O)(Nc1ccccc1)OCC | inactive: -6% and inactive: 10.1%
15 | COc1ccc(OP(C)(=O)Nc2ccccc2Br)cc1 (stereo unspecified) | inactive: -2.9%
16 | Cc1ccc(NP(C)(=O)Oc2ccccc2)c(C)c1 (stereo unspecified) | inactive: -3.1%
17 | CC(C)c1ccc(OP(=O)(Nc2ccccn2)Oc2ccccc2F)cc1 (stereo unspecified) | inactive: 4.8%
18 | COc1ccccc1OP(C)(=O)Nc1ccc(C)cc1 (stereo unspecified) | inactive: -13.4%
19 | ClCCSc1nnc(-c2cccnc2)o1 | inactive: -9.5%
20 | CCOC(=O)c1ccc(NP(C)(=O)Oc2ccccc2)cc1 (stereo unspecified) | inactive: -6.6%
21 | Cc1cc(C)cc(OP(C)(N)=O)c1 (stereo unspecified) | inactive: -7.9%
22 | COc1ccc(OP(C)(=O)Nc2cccc(F)c2)cc1 (stereo unspecified) | inactive: 4.9%
23 | COc1ccccc1OP(C)(=O)Nc1cc(Cl)ccc1C (stereo unspecified) | inactive: 2.5%
24 | CC(C)NC(=O)NP(=O)(Oc1ccccc1)Oc1ccccc1 | inactive: -2.3%

Row | Compound | inhibition
25 | CCN(CC)C(=S)SC(NC=O)C(Cl)(Cl)Cl (stereo unspecified) | inactive: -12.5%
26 | O=[As](O)(c1ccc(O)cc1)c1ccccc1O | inactive: 5.8%
27 | C[As](=O)(O)c1cccc(C(=O)O)c1 | inactive: 3.3%
28 | O=[N+]([O-])c1ccc2c(c1)C=Nc1ccccc1O2 | inactive: -12.7%
29 | Cc1ccc2nc3c(c(C)c2c1)CC(C(Cl)Cl)S3 (stereo unspecified) | inactive: 0.2%
30 | Cc1cccc(C)c1OP(C)(N)=O (stereo unspecified) | inactive: 1.3%
31 | Cc1ccc(OP(=O)(Nc2ccc([N+](=O)[O-])cn2)Oc2ccc(C)cc2)cc1 | inactive: 3.9%
32 | CC(C)(C)c1ccc(OP(C)(=O)Nc2ccc(SC(F)(F)F)cc2)cc1 (stereo unspecified) | inactive: 1.6%
33 | COc1ccc(N/C(=N/P(=O)(N2CCOCC2)N2CCOCC2)N2CCOCC2)cc1 | inactive: -5.3%
34 | Cc1cc(=O)[nH]c(N[N+](=O)[O-])n1 | inactive: -10.9%
35 | CCN(CC)CCCOC(=O)C(O)(c1ccccc1)c1ccccc1 | inactive: -9%
36 | O=C(OC1CN2CCC1CC2)C12CC3CC(CC(C3)C1)C2 (stereo unspecified) | inactive: -10.9%
37 | Cc1c2c(nc3ccccc13)SC(C(Cl)Cl)C2 (stereo unspecified) | inactive: 4.5%
38 | COc1cc(I)ccc1[As](=O)(O)O | inactive: 0.6%
39 | COc1ccc2nc(NP(=O)(c3ccccc3)c3ccccc3)sc2c1 | inactive: 9.5%
40 | CCOC(=O)c1ccc(NP(C)(=O)Oc2ccc(OC)cc2)cc1 (stereo unspecified) | inactive: -1%
41 | CCOC(=O)c1ccc(NC(=O)C(C)(CCl)SC)cc1 (stereo unspecified) | inactive: -9.5%
42 | O=C(OC1CN2CCC1CC2)c1cccc([N+](=O)[O-])c1 (stereo unspecified) | inactive: 6.1%
43 | CCOP(C)(=S)SCC(=O)NC(C)C(=O)O (stereo unspecified) | inactive: -3.8%
44 | CP(=O)(Nc1ccccn1)Oc1ccc(Cl)cc1 (stereo unspecified) | inactive: 0.8%
45 | CCC(C)N(CC(C)C)C(=S)SC(NC(C)=O)C(Cl)(Cl)Cl (stereo unspecified) | inactive: -7.7%
46 | CP(=O)(Oc1ccccc1)OC(c1ccccc1)C(F)(F)F (stereo unspecified) | inactive: 1.5%
47 | COP1(=S)c2c(C)nn(CCC#N)c2N=C(c2ccc(F)cc2)N1C (stereo unspecified) | inactive: 10.7%
48 | Cc1cccc(C)c1OP(C)(=O)Nc1ccc(SC(F)(F)F)cc1 (stereo unspecified) | inactive: -8.6%

Row | Compound | inhibition
49 | CP(=O)(Nc1ccc(SC(F)(F)F)cc1)Oc1ccc(Cl)cc1 (stereo unspecified) | inactive: -8.4%
50 | Cc1cc(C)cc(OP(C)(=O)Nc2ccc(SC(F)(F)F)cc2)c1 (stereo unspecified) | inactive: -0.9%
51 | O=C(Nc1ccncc1[N+](=O)[O-])c1ccc([N+](=O)[O-])cc1[N+](=O)[O-] | inactive: 3.6%
52 | O=C(COc1ccccc1)OC1CN2CCC1CC2 (stereo unspecified) | inactive: 7.5%
53 | CP(=O)(NC(=O)Nc1ccccc1)Oc1ccccc1 (stereo unspecified) | inactive: -8.1%
54 | CCc1ccc(OP(C)(=O)N2CCN(c3ccc([N+](=O)[O-])cc3)CC2)cc1 (stereo unspecified) | inactive: -3.3%
55 | CCOC(=O)Nc1cccc([As](=O)(O)O)c1 | inactive: 3.9%
56 | CP(=S)(Nn1cnnc1)Oc1ccccc1 (stereo unspecified) | inactive: 2.5%
57 | O=[N+]([O-])c1ccc(Nc2ccc(Oc3ccc([N+](=O)[O-])cc3[N+](=O)[O-])cc2)c([N+](=O)[O-])c1 | inactive: 4.3%
58 | CP(=O)(Nc1ccccc1Br)Oc1ccccc1 (stereo unspecified) | inactive: 6.9%
59 | COc1ccccc1OP(C)(=O)Nc1ccccc1 (stereo unspecified) | inactive: 2.3%
60 | O=P(Nc1ccccn1)(c1cccc2ccccc12)c1cccc2ccccc12 | inactive: -3.3%
61 | Cc1cc(SC(NC=O)C(Cl)(Cl)Cl)ncn1 (stereo unspecified) | inactive: 3.9%
62 | Cc1cc(SC(NC(=O)c2ccccc2)C(Cl)(Cl)Cl)nc(C(C)C)n1 (stereo unspecified) | inactive: -3.8%
63 | CCCCOc1ccc(C(=O)NCC2(N3CCCCC3)CCCCC2)cc1OC | inactive: -9.1%
64 | COc1ccccc1OP(C)(=O)Nc1c(C)cccc1C (stereo unspecified) | inactive: -10%
65 | CN1CCCCC1COC(=O)C1(O)c2ccccc2CCc2ccccc21 (stereo unspecified) | inactive: 5.8%
66 | O=P1(Nc2ncccn2)COc2ccccc2OC1 | inactive: 4.2%
67 | Cc1ccc(OCC(=O)OC2CN3CCC2CC3)cc1 (stereo unspecified) | inactive: -6.3%
68 | O=[As](O)(c1cccs1)c1cccs1 | inactive: -3.4%
69 | O=P1(Nc2ccc(Br)cn2)COc2ccccc2OC1 | inactive: -7.7%
70 | CCCOc1ccc(NP(C)(=O)Oc2ccc(Cl)cc2)cc1 (stereo unspecified) | inactive: 3.6%
71 | Nc1cccc([As](=O)(O)c2ccccc2)c1 | inactive: 3.4%
72 | CP(=O)(Nc1ccc(SC(F)(F)F)cc1)Oc1ccccc1 (stereo unspecified) | inactive: -13.1%

Row | Compound | inhibition
73 | COc1cc(C2NCCC3(OCCO3)C2(C)C)cc(OC)c1OC.O=[N+]([O-])c1cc([N+](=O)[O-])c(O)c([N+](=O)[O-])c1 (stereo unspecified) | inactive: -7.5%
74 | CC1CCC(C(C)C)C(OP(=O)(Nc2ccccn2)c2ccccc2)C1 (stereo unspecified) | inactive: -5.9%
75 | Cc1ccc(C(=O)OC2CN3CCC2CC3)cc1 (stereo unspecified) | inactive: -2.3%
76 | Cc1nn(-c2ccccc2)c2c1P(=O)(N1CCOCC1)N(C)C(c1ccccc1)=N2 (stereo unspecified) | inactive: 5.7%
77 | O=C(/C=C/c1ccccc1)OC1CN2CCC1CC2 (stereo unspecified) | inactive: -1.7%
78 | CCOC(=O)C(CC)C1=NC(C)(C)Cc2ccccc21.O=[N+]([O-])c1cc([N+](=O)[O-])c(O)c([N+](=O)[O-])c1 (stereo unspecified) | inactive: 3.9%
79 | CN(C)C1(CNC(=O)c2ccc(S(C)(=O)=O)cc2)CCCCC1 | inactive: 4.7%
80 | O=[N+]([O-])c1cc([N+](=O)[O-])c(Nc2nnnn2CCO)c([N+](=O)[O-])c1 | inactive: 9.4%
81 | Cc1nc2ccc3ccccc3c2s1.O=[N+]([O-])c1cc([N+](=O)[O-])c(O)c([N+](=O)[O-])c1 | inactive: -6.2%
82 | O=[As](O)(c1ccccc1Br)c1ccccc1Br | inactive: 0.8%
83 | CC(C)/C=N\N=C(\N)N[N+](=O)[O-] | inactive: 6.1%
84 | CN(C(=O)Cc1ccc(Cl)c(Cl)c1)[C@@H]1CCCC[C@H]1N1CCCC1 | inactive: 1.6%
85 | CCOP(=O)(Nc1ccc(C)cn1)OCC | inactive: 4.7%
86 | O=[N+]([O-])c1cc([N+](=O)[O-])c(-n2nnc3ccccc32)c([N+](=O)[O-])c1 | inactive: 6.8%
87 | CCOP(=O)(NC(=NC(C)c1ccccc1)NC(C)c1ccccc1)OCC (stereo unspecified) | inactive: -1.8%
88 | CCC1=CC2Cc3nc4ccc(Cl)cc4c(N)c3C(C1)C2 (stereo unspecified) | inactive: -8.9%
89 | CC(C)(C)C(=O)NC(Sc1ncccn1)C(Cl)(Cl)Cl (stereo unspecified) | inactive: -7.3%
90 | Clc1n[nH]nc1-c1nn[nH][15n]1 | inactive: 5.5%
91 | Cc1ccc(C)c(NP(C)(=O)Oc2ccccc2)c1 (stereo unspecified) | inactive: 6.8%
92 | CCCOP(=S)(Nc1nc(N)cc(=O)[nH]1)OCCC | inactive: 7.6%
93 | Cc1ccc(NCCc2c([N+](=O)[O-])cc([N+](=O)[O-])cc2[N+](=O)[O-])cc1 | inactive: 43.1%
94 | Cc1cc(C)cc(OP(C)(=O)Nc2ccccn2)c1 (stereo unspecified) | inactive: -3.1%
95 | CP(=O)(Nc1cccc(Br)c1)Oc1ccccc1 (stereo unspecified) | inactive: -1.5%
96 | CCOP(=O)(Nc1cccc2ccccc12)OCC | inactive: 0.6%

Row | Compound | inhibition
97 | COc1ccccc1OP(C)(=O)Nc1cccc(Br)c1 (stereo unspecified) | inactive: -3.6%
98 | CS(=O)(=O)c1ccc(Cl)c(NC(=O)COC(=O)C(O)(c2ccccc2)c2ccccc2)c1 | inactive: 3.8%
99 | O=[As](O)(O)c1cccnc1 | inactive: -6%
100 | COc1cc(C(=O)NCC2(N3CCOCC3)CCCCC2)cc(Cl)c1OC(C)C | inactive: -8.1%
101 | O=C(OC1CN2CCC1CC2)c1ccc(Cl)cc1 (stereo unspecified) | inactive: -4.1%
102 | CCOC(=O)c1ccc(NP(C)(=O)Oc2cc(C)cc(C)c2)cc1 (stereo unspecified) | inactive: 4%
103 | Cc1cc(C)cc(OP(C)(=O)Nc2ccc(C)cc2C)c1 (stereo unspecified) | inactive: -2.5%
104 | Cc1cccc(OCC(=O)OC2CN3CCC2CC3)c1 (stereo unspecified) | inactive: -7.6%
105 | O=[As](O)(c1cccc(O)c1)c1cccc(O)c1 | inactive: 1.2%
106 | NC(=O)Nc1ccc([As](=O)(O)O)cc1 | inactive: -13.2%
107 | CC1=NCCc2c1[nH]c1ccccc21.O=[N+]([O-])c1cc([N+](=O)[O-])c(O)c([N+](=O)[O-])c1 | inactive: -2.2%
108 | O=[N+]([O-])c1ccc2c(c1)nnn2O | inactive: 10.2%
109 | CCOP1(=S)c2c(C)nn(CCC#N)c2N=C(c2ccc(F)cc2)N1C (stereo unspecified) | inactive: -2.6%
110 | CN(C(=O)Cc1ccccc1)[C@@H]1CC[C@]2(CCCO2)C[C@H]1N1CCCC1 | inactive: -2.9%
111 | O=P(Nc1nccs1)(Oc1ccccc1)Oc1ccccc1 | inactive: -0.7%
112 | O=P(Nc1nccs1)(c1ccccc1)c1nc2ccccc2s1 (stereo unspecified) | inactive: 1.7%
113 | CCOP1(=S)c2c(C)nn(CCC#N)c2N=C(c2ccccc2F)N1C (stereo unspecified) | inactive: -5.8%
114 | O=C(O)c1cccc(Nc2c([N+](=O)[O-])cc([N+](=O)[O-])cc2[N+](=O)[O-])c1 | inactive: 11.7%
115 | Nc1ccccc1[As](=O)(O)c1ccccc1 | inactive: -3.1%
116 | O=C(O)COc1ccc([As](=O)(O)O)cc1[N+](=O)[O-] | inactive: -5%
